Source: paper PMC6588435 (Cell chemical biology, 2019)

Amino acid sequences for entries named in this document (tags omitted). A change or cut given only in a name is not applied to a line headed by its entry.
UniProt P9WG57: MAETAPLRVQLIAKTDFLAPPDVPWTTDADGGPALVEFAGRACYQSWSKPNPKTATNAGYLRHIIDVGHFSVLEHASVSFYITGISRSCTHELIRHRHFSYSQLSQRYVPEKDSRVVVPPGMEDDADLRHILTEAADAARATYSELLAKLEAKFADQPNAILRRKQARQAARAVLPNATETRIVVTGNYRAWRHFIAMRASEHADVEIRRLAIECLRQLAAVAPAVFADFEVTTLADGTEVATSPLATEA

Biological target: Mtb FDTS (Mycobacterium tuberculosis, UniProt P9WG57)
Assay: Mtb FDTS NADPH oxidation assay
Assay type: biochemical
Settings: 200 µM

Compound	inhibition of NADPH oxidation activity of Mtb FDTS
Nc1nc(=O)c2nc(CNc3ccc(C(=O)NC(CCC(=O)O)C(=O)O)c(O)c3)cnc2[nH]1 (centres unmarked) [PAS-M, 2-[(4-{[(2-amino-4-oxo-1,4-dihydropteridin-6-yl)methyl]amino}-2-hydroxyphenyl)formamido] pentanedioic acid]	fully inhibiting
Nc1nc2c(c(=O)[nH]1)N1CN(c3ccc(C(=O)N[C@@H](CCC(=O)O)C(=O)O)cc3)CC1CN2 (some centres unmarked) [mTHF, 5,10-Methylenetetrahydrofolate]	100%
